Test results: patent US20230157952A1, “METHOD FOR IMPROVING THE STABILITY OF A PHARMACEUTICAL COMPOSITION COMPRISING A HIGH PENETRATION DRUG, AND THE PHARMACEUTICAL COMPOSITION OBTAINED THEREFROM” (Techfields Inc., priority 2020, published 2023)

How the values were obtained:
[1] = Effect of pH value on the stability of the solution (purity); type: physicochemical; details: 25° C.
[2] = Stability of the pure HPDs (dry solid) at 25° C./RH 60%; type: physicochemical; details: pure HPD
[3] = Effect of solvent on the stability of the solution (purity at various pH values and temperature); type: physicochemical; details: 7% solution
Excerpt: The results are illustrated in the following.

[4] = Effect of concentration on the stability of the solution (purity over time); details: at 5° C. in 15% ethanol

## CC(O)C(=O)O.CCN(CC)CCOC(=O)c1ccccc1OC(C)=O [A-3, 2-(diethylamino)ethyl acetylsalicylate•lactic acid salt]
[1]; day 0, pH 1.0, 7% in water
  Purity(%) from day 0-14: 97.8 ± 0.3%
[1]; day 0, pH 2.0, 7% in water
  Purity(%) from day 0-14: 98.0 ± 0.2%
[1]; day 0, pH 3.0, 7% in water
  Purity(%) from day 0-14: 98.2 ± 0.1%
[1]; day 0, pH 3.7, 7% in water
  Purity(%) from day 0-14: 98.2 ± 0.2%
[1]; day 0, pH 4.0, 7% in water
  Purity(%) from day 0-14: 98.3 ± 0.1%
[1]; day 0, pH 4.3, 7% in water
  Purity(%) from day 0-14: 98.2 ± 0.1%
[1]; day 0, pH 4.6, 7% in water
  Purity(%) from day 0-14: 98.2 ± 0.3%
[1]; day 0, pH 5.0, 7% in water
  Purity(%) from day 0-14: 98.2 ± 0.2%
[1]; day 0, pH 6.0, 7% in water
  Purity(%) from day 0-14: 98.0 ± 0.1%
[1]; day 0, pH 7.0, 7% in water
  Purity(%) from day 0-14: 98.0 ± 0.2%
[1]; day 0, pH 8.0, 7% in water
  Purity(%) from day 0-14: 97.8 ± 0.2%
[2]; 3 month
  Purity: 98.4 ± 0.2
[2]; 6 month
  Purity: 98.2 ± 0.2
[2]; Day 0
  Purity: 98.3 ± 0.1

## CCN(CC)CCOC(=O)c1ccccc1OC(C)=O.O=C(O)/C=C\C(=O)O [A-1, 2-(diethylamino)ethyl acetylsalicylate•maleic acid salt]
[1]; day 0, pH 1.0, 7% in water
  Purity(%) from day 0-14: 98.1 ± 0.3%
[1]; day 0, pH 2.0, 7% in water
  Purity(%) from day 0-14: 98.2 ± 0.3%
[1]; day 0, pH 3.0, 7% in water
  Purity(%) from day 0-14: 98.4 ± 0.1%
[1]; day 0, pH 3.7, 7% in water
  Purity(%) from day 0-14: 98.5 ± 0.1%
[1]; day 0, pH 4.0, 7% in water
  Purity(%) from day 0-14: 98.6 ± 0.1%
[1]; day 0, pH 4.3, 7% in water
  Purity(%) from day 0-14: 98.5 ± 0.2%
[1]; day 0, pH 4.6, 7% in water
  Purity(%) from day 0-14: 98.5 ± 0.3%
[1]; day 0, pH 5.0, 7% in water
  Purity(%) from day 0-14: 98.4 ± 0.1%
[1]; day 0, pH 6.0, 7% in water
  Purity(%) from day 0-14: 98.3 ± 0.2%
[1]; day 0, pH 7.0, 7% in water
  Purity(%) from day 0-14: 98.2 ± 0.2%
[1]; day 0, pH 8.0, 7% in water
  Purity(%) from day 0-14: 98.0 ± 0.3%

## CCN(CC)CCOC(=O)c1ccccc1OC(C)=O.Cl
[3]; solvent 15% ethanol, pH 3.0, day 14, 5° C.
  Purity(%) at day 14 (5° C.): 98.3 ± 0.3%
[3]; solvent 15% ethanol, pH 3.7, day 14, 5° C.
  Purity(%) at day 14 (5° C.): 98.9 ± 0.2%
[3]; solvent 15% ethanol, pH 4.0, day 14, 5° C.
  Purity(%) at day 14 (5° C.): 98.9 ± 0.1%
[3]; solvent 15% ethanol, pH 4.3, day 14, 5° C.
  Purity(%) at day 14 (5° C.): 98.9 ± 0.1%
[3]; solvent 15% ethanol, pH 4.6, day 14, 5° C.
  Purity(%) at day 14 (5° C.): 98.6 ± 0.2%
[3]; solvent 25% ethanol, pH 3.0, day 14, 5° C.
  Purity(%) at day 14 (5° C.): 98.5 ± 0.2%
[3]; solvent 25% ethanol, pH 4.6, day 14, 5° C.
  Purity(%) at day 14 (5° C.): 98.8 ± 0.1%
[3]; solvent 25% ethanol, pH 5.0, day 14, 5° C.
  Purity(%) at day 14 (5° C.): 98.0 ± 0.2%
[3]; solvent 50% ethanol, pH 3.0, day 14, 5° C.
  Purity(%) at day 14 (5° C.): 98.6 ± 0.3%
[3]; solvent 50% ethanol, pH 4.6, day 14, 5° C.
  Purity(%) at day 14 (5° C.): 99.0 ± 0.3%
[3]; solvent 50% ethanol, pH 5.0, day 14, 5° C.
  Purity(%) at day 14 (5° C.): 98.2 ± 0.3%
[3]; solvent water, pH 3.0, day 14, 5° C.
  Purity(%) at day 14 (5° C.): 98.1 ± 0.1%
[3]; solvent water, pH 3.7, day 14, 5° C.
  Purity(%) at day 14 (5° C.): 98.7 ± 0.1%
[3]; solvent water, pH 4.0, day 14, 5° C.
  Purity(%) at day 14 (5° C.): 98.8 ± 0.1%
[3]; solvent water, pH 4.3, day 14, 5° C.
  Purity(%) at day 14 (5° C.): 98.9 ± 0.1%
[3]; solvent water, pH 4.6, day 14, 5° C.
  Purity(%) at day 14 (5° C.): 98.5 ± 0.2%
[3]; solvent water, pH 8.0, day 0
  Purity(%) at day 0: 99.0 ± 0.3%

## CCN(CC)CCOC(=O)c1ccccc1OC(C)=O.Cl [2-(diethylamino)ethyl acetylsalicylate•HCl]
[4]; 3 wt %
  Purity at day 3: 98.6%
  Purity at day 7: 97.7%
[4]; 5 wt %
  Purity at day 14: 98.9%
  Purity at day 21: 98.5%
  Purity at day 28: 98.0%
[4]; 7 wt %
  Purity at day 21: 98.9%
  Purity at day 28: 98.7%
  Purity at day 60: 98.0%
[4]; 8 wt %
  Purity at day 21: 98.8%
  Purity at day 28: 98.6%
  Purity at day 60: 98.0%
[4]; 10 wt %
  Purity at day 21: 98.7%
  Purity at day 28: 98.7%
  Purity at day 60: 98.3%
[4]; 15 wt %
  Purity at day 21: 98.9%
  Purity at day 28: 98.7%
  Purity at day 60: 98.1%
[4]; 20 wt %
  Purity at day 21: 99.0%
  Purity at day 28: 98.8%
  Purity at day 60: 98.1%
[4]; 30 wt %
  Purity at day 21: 99.0%
  Purity at day 28: 98.9%
  Purity at day 60: 98.2%
[4]; 50 wt %
  Purity at day 28: 99.0%
  Purity at day 60: 98.2%

## CCN(CC)CCOC(=O)c1ccccc1OC(C)=O.O=C(O)c1ccccc1 [A-2, 2-(diethylamino)ethyl acetylsalicylate•benzoic acid salt]
[1]; day 0, pH 1.0, 7% in water
  Purity(%) from day 0-14: 98.2 ± 0.2%
[1]; day 0, pH 2.0, 7% in water
  Purity(%) from day 0-14: 98.4 ± 0.2%
[1]; day 0, pH 3.0, 7% in water
  Purity(%) from day 0-14: 98.5 ± 0.1%
[1]; day 0, pH 3.7, 7% in water
  Purity(%) from day 0-14: 98.6 ± 0.1%
[1]; day 0, pH 4.0, 7% in water
  Purity(%) from day 0-14: 98.6 ± 0.2%
[1]; day 0, pH 4.3, 7% in water
  Purity(%) from day 0-14: 98.7 ± 0.2%
[1]; day 0, pH 4.6, 7% in water
  Purity(%) from day 0-14: 98.6 ± 0.3%
[1]; day 0, pH 5.0, 7% in water
  Purity(%) from day 0-14: 98.5 ± 0.2%
[1]; day 0, pH 6.0, 7% in water
  Purity(%) from day 0-14: 98.4 ± 0.3%
[1]; day 0, pH 7.0, 7% in water
  Purity(%) from day 0-14: 98.2 ± 0.2%
[1]; day 0, pH 8.0, 7% in water
  Purity(%) from day 0-14: 98.0 ± 0.3%
[2]; 3 month
  Purity: 98.4 ± 0.1
[2]; 6 month
  Purity: 98.2 ± 0.2
[2]; Day 0
  Purity: 98.5 ± 0.2

## CCCCC(=O)O.CCN(CC)CCOC(=O)c1ccccc1OC(C)=O [A-4, 2-(diethylamino)ethyl acetylsalicylate•valeric acid]
[1]; day 0, pH 1.0, 7% in water
  Purity(%) from day 0-14: 97.8 ± 0.2%
[1]; day 0, pH 2.0, 7% in water
  Purity(%) from day 0-14: 98.1 ± 0.2%
[1]; day 0, pH 3.0, 7% in water
  Purity(%) from day 0-14: 98.3 ± 04%
[1]; day 0, pH 3.7, 7% in water
  Purity(%) from day 0-14: 98.4 ± 0.1%
[1]; day 0, pH 4.0, 7% in water
  Purity(%) from day 0-14: 98.4 ± 0.2%
[1]; day 0, pH 4.3, 7% in water
  Purity(%) from day 0-14: 98.5 ± 0.1%
[1]; day 0, pH 4.6, 7% in water
  Purity(%) from day 0-14: 98.4 ± 0.3%
[1]; day 0, pH 5.0, 7% in water
  Purity(%) from day 0-14: 98.3 ± 0.2%
[1]; day 0, pH 6.0, 7% in water
  Purity(%) from day 0-14: 98.2 ± 0.2%
[1]; day 0, pH 7.0, 7% in water
  Purity(%) from day 0-14: 98.0 ± 0.3%
[1]; day 0, pH 8.0, 7% in water
  Purity(%) from day 0-14: 97.9 ± 0.2%
[2]; 3 month
  Purity: 98.5 ± 0.1
